Experimental data reported in paper PMC6208443 (2018).
Values belong to the binder of their own block, whether it stands above or below them.

Assays:
[1] = target: T1, AtAGDP1 AGD56 (residues 375–517) (Arabidopsis thaliana, UniProt Q500V5 375-517); test: ITC
T1 chain: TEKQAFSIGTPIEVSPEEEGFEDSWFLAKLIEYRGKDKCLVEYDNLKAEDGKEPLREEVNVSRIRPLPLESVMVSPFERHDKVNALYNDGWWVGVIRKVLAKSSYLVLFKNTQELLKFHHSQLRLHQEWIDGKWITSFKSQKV

[2] = target: T2, AtAGDP1 AGD34 (residues 198–364) (Arabidopsis thaliana, UniProt Q500V5 198-364); test: ITC
T2 chain: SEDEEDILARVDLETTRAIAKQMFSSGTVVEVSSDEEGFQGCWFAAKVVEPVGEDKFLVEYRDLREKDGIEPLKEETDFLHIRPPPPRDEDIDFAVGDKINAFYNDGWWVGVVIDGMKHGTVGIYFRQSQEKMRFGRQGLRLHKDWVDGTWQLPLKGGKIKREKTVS

Kd [1]: 12.1 µM
Kd [2]: 27.8 µM
B1: H3K9me1 peptide (ITC) (peptide)
chain: ARTKQTARKSTGGKA
modifications: monomethyl-lysine at K9

Kd [1]: 6.25 µM
Kd [2]: 13.4 µM
B2: H3K9me2 peptide (ITC) (peptide)
chain: ARTKQTARKSTGGKA
modifications: dimethyl-lysine at K9
